# Data: patent US8497240B2 (priority 2006, dated 2013)
# “And” between values parts separate entries of the source, which are not always exact repeats. Identical values can stand only once.
# What was measured:
# [1] = Protease resistance with RINm5F cell membrane extracts (LC-MS); type: in vitro ADME; details: 30 μM, 37° C., 6 hr
# [2] = Solubility at various pHs; type: physicochemical
# [3] = Stability in human plasma (LC/MS/MS); type: in vitro ADME
# human GIP receptor = molecular target: T1, human GIP receptor (Homo sapiens, UniProt P48546); type: binding; details: HEK-GIPR; read-out: GIP RBA, IC50 in HEK-GIPR
# T1 construct: expressed in transfected cells; host or cells: HEK293 (HEK-GIPR), membranes
# T1 sequence (P48546 22-466): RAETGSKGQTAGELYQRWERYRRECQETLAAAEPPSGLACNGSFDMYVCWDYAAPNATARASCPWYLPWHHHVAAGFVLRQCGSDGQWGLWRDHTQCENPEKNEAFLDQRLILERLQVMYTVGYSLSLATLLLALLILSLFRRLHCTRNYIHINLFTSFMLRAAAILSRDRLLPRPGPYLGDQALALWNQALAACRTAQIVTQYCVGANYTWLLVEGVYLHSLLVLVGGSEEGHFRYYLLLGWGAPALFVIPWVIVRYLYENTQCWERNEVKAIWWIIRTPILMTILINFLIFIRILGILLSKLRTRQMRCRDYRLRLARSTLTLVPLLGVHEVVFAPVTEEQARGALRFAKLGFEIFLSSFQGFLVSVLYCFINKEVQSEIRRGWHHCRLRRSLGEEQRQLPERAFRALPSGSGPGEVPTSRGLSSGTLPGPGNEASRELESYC
# GIP Receptor = molecular target: T2, GIP Receptor (Rattus norvegicus, UniProt P43219); test: GIP receptor binding (GIP RBA) in RIN cells
# T2 construct: endogenous in cells; host or cells: RIN cells
# T2 sequence (P43219 19-455): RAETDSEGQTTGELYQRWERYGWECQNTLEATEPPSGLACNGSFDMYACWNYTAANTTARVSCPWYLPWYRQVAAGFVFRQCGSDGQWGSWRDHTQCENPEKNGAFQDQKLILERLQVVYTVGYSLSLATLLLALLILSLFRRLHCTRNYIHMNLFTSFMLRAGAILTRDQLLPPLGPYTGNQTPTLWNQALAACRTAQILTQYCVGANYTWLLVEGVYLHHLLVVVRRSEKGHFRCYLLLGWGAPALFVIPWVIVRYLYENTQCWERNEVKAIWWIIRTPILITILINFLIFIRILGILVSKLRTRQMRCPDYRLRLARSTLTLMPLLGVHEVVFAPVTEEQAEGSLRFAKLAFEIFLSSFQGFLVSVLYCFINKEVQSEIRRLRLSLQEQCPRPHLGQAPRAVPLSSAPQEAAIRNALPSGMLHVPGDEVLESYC
Substance,protease resistance (parent peptide remaining) [1],protease resistance (parent peptide remaining) ([1]; listed as Compound G),Solubility [2],pH ranges of solubility and physical/chemical stability [2],stability compared with exendin-4 [3],IC50 (human GIP receptor),IC50 (GIP Receptor)
Y(D-Ala)EGTFISDYSIAMDKIHQQDFVNWLLAQKPSSGAPPPS-NH2 [Compound 0601GIP3794],superior protease resistance,more stable than its parent molecule GIP(1-30) without the shield or the full length GIP(1-42),<1000 µg/mL,solubility and physical/chemical stability are at different ranges of pH,at least as stable or more stable than exendin-4,,
"[dAla2, Leu14, Ala18, glu21] GIP-(1-30)-Exendin-4 (31-39) [Compound 0601GIP4285]",,,<1000 µg/mL,,,0.11 nM and 0.22 nM,
"[dAla2, Leu14, beta-Ala31, beta-Ala32] GIP-(1-32)-Exendin-4 (31-39) [Compound 0601GIP4179]",,,,,,,3.3 nM
